{"source": "patent US20250186613A1", "about": "(The Trustees of the University of Pennsylvania, priority 2022, published 2025)", "origin": "cited, not measured here", "biological_target": "T1, GLP-2 receptor (Homo sapiens, UniProt O95838)", "T1 sequence (O95838 1-553)": "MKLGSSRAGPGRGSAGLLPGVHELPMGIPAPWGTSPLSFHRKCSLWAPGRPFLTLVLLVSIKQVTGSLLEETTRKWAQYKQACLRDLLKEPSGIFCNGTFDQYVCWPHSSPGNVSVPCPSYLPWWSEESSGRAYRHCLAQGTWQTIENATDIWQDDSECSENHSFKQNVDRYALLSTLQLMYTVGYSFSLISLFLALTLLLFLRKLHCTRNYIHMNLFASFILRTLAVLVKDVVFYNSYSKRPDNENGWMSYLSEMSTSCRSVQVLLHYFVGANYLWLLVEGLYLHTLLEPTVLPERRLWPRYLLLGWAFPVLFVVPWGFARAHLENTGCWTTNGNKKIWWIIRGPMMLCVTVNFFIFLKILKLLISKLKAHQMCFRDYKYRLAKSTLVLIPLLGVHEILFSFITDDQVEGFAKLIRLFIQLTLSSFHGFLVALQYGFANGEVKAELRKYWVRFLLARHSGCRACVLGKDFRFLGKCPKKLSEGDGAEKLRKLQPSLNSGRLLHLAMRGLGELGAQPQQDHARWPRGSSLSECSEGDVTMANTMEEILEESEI", "conditions": "relative to GLP2; cited from earlier work"}
{"smiles": "CC[C@H](C)[C@H](NC(=O)[C@H](Cc1ccccc1)NC(=O)[C@H](CC(=O)O)NC(=O)[C@H](CCCNC(=N)N)NC(=O)[C@H](C)NC(=O)[C@H](C)NC(=O)[C@H](CC(C)C)NC(=O)[C@H](CC(N)=O)NC(=O)[C@H](CC(=O)O)NC(=O)[C@H](CC(C)C)NC(=O)[C@@H](NC(=O)[C@@H](NC(=O)[C@H](CC(N)=O)NC(=O)[C@H](CCSC)NC(=O)[C@H](CCC(=O)O)NC(=O)[C@H](CC(=O)O)NC(=O)[C@H](CO)NC(=O)[C@H](Cc1ccccc1)NC(=O)[C@H](CO)NC(=O)CNC(=O)[C@H](CC(=O)O)NC(=O)CNC(=O)[C@@H](N)Cc1c[nH]cn1)[C@@H](C)O)[C@@H](C)CC)C(=O)N[C@@H](CC(N)=O)C(=O)N[C@@H](Cc1c[nH]c2ccccc12)C(=O)N[C@@H](CC(C)C)C(=O)N[C@H](C(=O)N[C@@H](CCC(N)=O)C(=O)N[C@H](C(=O)N[C@@H](CCCCN)C(=O)N[C@H](C(=O)N[C@H](C(=O)N[C@@H](CC(=O)O)C(=O)O)[C@@H](C)O)[C@@H](C)CC)[C@@H](C)O)[C@@H](C)CC", "note": "[Teduglutide]", "values": [{"measurement": "EC50 (/GLP2)", "result": "1 /GLP2"}]}
